Measured values taken from BindingDB's records for doi:10.1021/jm0500875 (Pfizer, 2005).
Structures can show the parent of a compound that is named as a salt.

Target: T1, Interstitial collagenase (Homo sapiens, UniProt P03956)
T1 sequence (P03956 whole entry): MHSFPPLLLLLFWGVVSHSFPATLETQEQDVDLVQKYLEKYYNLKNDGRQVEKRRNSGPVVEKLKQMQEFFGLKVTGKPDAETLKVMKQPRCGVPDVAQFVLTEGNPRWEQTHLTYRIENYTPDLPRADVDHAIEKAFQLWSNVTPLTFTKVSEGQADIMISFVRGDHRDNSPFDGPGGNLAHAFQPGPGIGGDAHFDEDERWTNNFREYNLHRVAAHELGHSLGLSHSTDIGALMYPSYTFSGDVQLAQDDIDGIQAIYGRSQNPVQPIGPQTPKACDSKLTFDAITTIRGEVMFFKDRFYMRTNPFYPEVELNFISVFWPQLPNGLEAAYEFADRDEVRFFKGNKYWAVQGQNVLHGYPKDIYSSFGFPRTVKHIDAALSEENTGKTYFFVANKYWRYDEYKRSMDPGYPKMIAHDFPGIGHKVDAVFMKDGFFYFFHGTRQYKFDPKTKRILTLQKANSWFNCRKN
Test: Enzyme Inhibition Assay
Details: pH 7.5; 25 °C

In the case of `C#CCN1CCC(CS(=O)(=O)c2ccc(Oc3ccc(C)c(C)c3)cc2)(C(=O)NO)CC1` [4-({[4-(3,4-Dimethylphenoxy)phenyl]sulfonyl}methyl)-N-hydroxy-1-prop-2-ynylpiperidine-4-carboxamide Hydrochloride], the Ki is reported as 7.7 µM.
